Test results published in patent US20070190043A1, “Use of a topical medicament comprising riluzole” (Biofrontera AG, priority 2003, published 2007).

Test system: psoriatic plaque
Conditions: 1%, 2% and 4% cream, 100 μl occlusive, 11 days, 24 patients

Nc1nc2ccc(OC(F)(F)F)cc2s1 [Riluzole, 2-amino-6-(trifluoromethoxy)-benzothiazole]
parameters of psoriasis severity (visual scoring, skin colour, skin thickness) compared to placebo control: improvement of one or more parameters of psoriasis severity
